Values quoted from earlier work as cited in patent US11446302B2, “Compounds with anti-tumor activity against cancer cells bearing EGFR or HER2 exon 20 mutations” (Board of Regents, The University of Texas System, priority 2016, dated 2022).

Tested on: NSCLC with classical sensitizing mutations (L858R and exon 19 deletions)
Conditions: Maemondo et al., 2010; cited from earlier work

Structure (SMILES): COc1cc2ncnc(Nc3ccc(F)c(Cl)c3)c2cc1OCCCN1CCOCC1 [Gefitinib]
- patients experiencing objective responses (OR): approximately 70%
